# From PubChem BioAssay AID1379 (National Center for Advancing Translational Sciences (NCATS), 2008)
# Only a part is listed here, and it is no random draw. The source made the active and inactive calls. Calls come from the whole dose curve; as a rule, active = well fitted inhibition curve with a large enough effect; inconclusive = small, poorly fitted or top-dose-only effect; inactive = flat fitted curve, though single readings scatter.
# Target: Luciferin 4-monooxygenase (Photuris pensylvanica) (UniProt Q27757)
# Test: Counterscreen for Luciferase (Kinase-Glo TM) Inhibition; note: nearly all actives have a fitted effect of over 60% in size
# Details: ATP luminescence, 8 min; at 38.3 µM (top of the series) unless noted
# Method in brief: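 Compound is pinned into ATP-containing buffer (10 uM ATP, imidazole pH 7.2, 7 mM MgCl2). Kinase-Glo luciferase reagent is then added. Light output is recorded following an 8-min room-temperature incubation.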
# % is set by controls: 0 for no effect and ±100 for the full control effect.
row,SMILES,"activity change, negative = inhibition"
1,Cc1cc(C)cc(OP(C)(N)=O)c1 (configuration not stated),inactive: -0.838%
2,COc1ccc(OP(C)(=O)Nc2cccc(F)c2)cc1 (configuration not stated),inactive: 2.39%
3,COc1ccccc1OP(C)(=O)Nc1cc(Cl)ccc1C (configuration not stated),inactive: 2.33%
4,Cc1ccc(NP(C)(=O)Oc2ccccc2)c(C)c1 (configuration not stated),inactive: -3.86%
5,COc1ccccc1OP(C)(=O)Nc1ccc(C)cc1 (configuration not stated),inactive: -0.954%
6,CCOC(=O)c1ccc(NP(C)(=O)Oc2ccccc2)cc1 (configuration not stated),inactive: 2.74%
7,O=[N+]([O-])c1ccc2c(c1)C=Nc1ccccc1O2,inactive: -1.04%
8,Cc1cccc(C)c1OP(C)(N)=O (configuration not stated),inactive: 1.07%
9,CC(C)(C)c1ccc(OP(C)(=O)Nc2ccc(SC(F)(F)F)cc2)cc1 (configuration not stated),inactive: -3.31%
10,CC1=NCCc2c1[nH]c1ccccc21.O=[N+]([O-])c1cc([N+](=O)[O-])c(O)c([N+](=O)[O-])c1,inactive: 1.91%
11,O=[N+]([O-])OCC(CO[N+](=O)[O-])(CO[N+](=O)[O-])CO[N+](=O)[O-],inactive: -2.72% [at 39.9 µM]
12,Cc1ccc(C)c(NP(C)(=O)Oc2ccccc2)c1 (configuration not stated),inactive: 2.41%
13,Cc1cc(C)cc(OP(C)(=O)Nc2ccccn2)c1 (configuration not stated),inactive: 0.488%
14,CP(=O)(Nc1cccc(Br)c1)Oc1ccccc1 (configuration not stated),inactive: 0.0036%
15,CCOC(=O)c1ccc(NP(C)(=O)Oc2cc(C)cc(C)c2)cc1 (configuration not stated),inactive: -0.873%
16,Cc1cc(C)cc(OP(C)(=O)Nc2ccc(C)cc2C)c1 (configuration not stated),inactive: -2.16%
17,Cc1nc2ccc3ccccc3c2s1.O=[N+]([O-])c1cc([N+](=O)[O-])c(O)c([N+](=O)[O-])c1,inactive: -3.19%
18,O=[N+]([O-])c1cc([N+](=O)[O-])c(-n2nnc3ccccc32)c([N+](=O)[O-])c1,inactive: 9.42%
19,CCCOc1ccc(NP(C)(=O)Oc2ccc(Cl)cc2)cc1 (configuration not stated),inactive: -0.409%
20,CP(=O)(Nc1ccc(SC(F)(F)F)cc1)Oc1ccccc1 (configuration not stated),inactive: 3.91%
21,COc1ccccc1OP(C)(=O)Nc1c(C)cccc1C (configuration not stated),inactive: -0.143%
22,CN1CCCCC1COC(=O)C1(O)c2ccccc2CCc2ccccc21 (configuration not stated),inactive: -3.96%
